## Membrane permeability of cyclic peptides

Collected by the curators of CycPeptMPDB (Li et al. 2023) from Townsend et al. 2020, doi:10.26434/chemrxiv.13335941.v1.

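Conditions beyond the assay type are not listed; see the original paper. Other peptides of the study may be missing here. Entries at the database's floor value (log10 P of -10) are not listed.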

PAMPA is the parallel artificial membrane permeability assay, which has no cells and reads passive diffusion. Permeability is given as log10 of P in cm/s; higher (less negative) is more permeable.

PAMPA (log10 cm/s) | compound
-6.11 | CCCN1CC(=O)N[C@H](CC(C)C)C(=O)N[C@@H](CC(C)C)C(=O)N2CCC[C@@H]2C(=O)N[C@@H](CC(C)C)C(=O)N[C@@H](Cc2ccccc2)C(=O)N2CCC[C@@H]2C1=O
-5.67 | CC(C)C[C@@H]1C(=O)N[C@H](CC(C)C)C(=O)N2CCC[C@@H]2C(=O)N[C@H](CC(C)C)C(=O)N[C@@H](Cc2ccccc2)C(=O)N2CCC[C@@H]2C(=O)N[C@@H](Cc2ccccc2)CC(=O)N1C
-5.10 | CC(C)C[C@@H]1NC(=O)[C@H](CC(C)C)N(C)C(=O)[C@@H](C)N(C)C(=O)[C@H]2CCCN2C(=O)[C@H](Cc2ccccc2)NC(=O)[C@H](CC(C)C)N(C)C(=O)[C@H]2CCCN2C1=O
-5.69 | CC(C)C[C@@H]1C(=O)N2CCC[C@H]2C(=O)N[C@H](CC(C)C)C(=O)N[C@@H](Cc2ccccc2)C(=O)N[C@H](C)C(=O)N[C@H](CC(C)C)C(=O)N1C
-5.95 | CC(C)C[C@@H]1NC(=O)[C@H](C)N(C)C(=O)[C@H]2CCCN2C(=O)[C@H](Cc2ccccc2)NC(=O)CN(Cc2ccccc2)C(=O)[C@@H]2CCCN2C(=O)C[C@H](Cc2ccccc2)NC1=O
-6.10 | CC(C)C[C@@H]1NC(=O)[C@H](C)NC(=O)[C@H]2CCCN2C(=O)[C@H](Cc2ccccc2)NC(=O)[C@@H](CC(C)C)N(C)C(=O)[C@@H]2CCCN2C(=O)[C@@H](CC(C)C)N(C)C1=O
-5.62 | CC(C)C[C@H]1NC(=O)[C@H]2CCCN2C(=O)CN(Cc2ccccc2)C(=O)[C@@H](CC(C)C)NC(=O)[C@H](C)NC(=O)[C@H](Cc2ccccc2)NC1=O
-6.30 | CC(C)C[C@H]1NC(=O)[C@@H](C)NC(=O)[C@H]2CCCN2C(=O)[C@H](Cc2ccccc2)NC(=O)CN(Cc2ccccc2)C(=O)[C@@H]2CCCN2C(=O)[C@@H](CC(C)C)NC1=O
-5.51 | CC(C)C[C@H]1NC(=O)[C@@H](C)N(C)C(=O)[C@H](Cc2ccccc2)NC(=O)[C@H](CC(C)C)N(C)C(=O)[C@@H]2CCCN2C(=O)C[C@H](Cc2ccccc2)NC1=O
-5.26 | CCCN1CC(=O)N[C@@H](CC(C)C)C(=O)N[C@@H](Cc2ccccc2)CC(=O)N2CCC[C@H]2C(=O)N(C)[C@@H](CC(C)C)C(=O)N[C@@H](Cc2ccccc2)C(=O)N2CCC[C@@H]2C1=O
-5.52 | CCCN1CC(=O)N[C@@H](CC(C)C)C(=O)N[C@@H](CC(C)C)C(=O)N2CCC[C@@H]2C(=O)N(Cc2ccccc2)CC(=O)N[C@@H](Cc2ccccc2)C(=O)N2CCC[C@H]2C1=O
-5.10 | CC(C)C[C@@H]1C(=O)N2CCC[C@@H]2C(=O)N(C)[C@@H](CC(C)C)C(=O)N[C@@H](Cc2ccccc2)C(=O)N[C@@H](Cc2ccccc2)CC(=O)N[C@H](CC(C)C)C(=O)N1C
-5.72 | CC(C)C[C@@H]1C(=O)N[C@@H](Cc2ccccc2)C(=O)N[C@@H](C)C(=O)N[C@H](CC(C)C)C(=O)N(C)[C@@H](CC(C)C)C(=O)N2CCC[C@H]2C(=O)N1C
-5.80 | CC(C)C[C@@H]1NC(=O)[C@@H](CC(C)C)N(C)C(=O)[C@@H](C)N(C)C(=O)[C@@H]2CCCN2C(=O)[C@H](Cc2ccccc2)NC(=O)CN(Cc2ccccc2)C(=O)[C@@H]2CCCN2C1=O
-6.17 | CC(C)C[C@H]1NC(=O)[C@H](C)NC(=O)[C@@H]2CCCN2C(=O)[C@H](Cc2ccccc2)NC(=O)[C@H](CC(C)C)N(C)C(=O)[C@@H]2CCCN2C(=O)C[C@H](Cc2ccccc2)NC1=O
-5.61 | CC(C)C[C@@H]1NC(=O)[C@H]2CCCN2C(=O)[C@@H](CC(C)C)N(C)C(=O)[C@@H](CC(C)C)N(C)C(=O)[C@H](C)NC(=O)[C@H]2CCCN2C(=O)[C@H](Cc2ccccc2)NC1=O
-6.67 | CC(C)C[C@H]1NC(=O)[C@H](C)NC(=O)[C@H](Cc2ccccc2)NC(=O)CN(Cc2ccccc2)C(=O)[C@H]2CCCN2C(=O)[C@@H](CC(C)C)NC1=O
-5.57 | CC(C)C[C@@H]1NC(=O)[C@H]2CCCN2C(=O)[C@H](CC(C)C)N(C)C(=O)[C@H](CC(C)C)N(C)C(=O)[C@@H](C)NC(=O)[C@H](Cc2ccccc2)NC1=O
-5.84 | CC(C)C[C@H]1NC(=O)C[C@H](Cc2ccccc2)NC(=O)[C@@H]2CCCN2C(=O)[C@H](Cc2ccccc2)NC(=O)[C@H](CC(C)C)N(C)C(=O)[C@@H]2CCCN2C(=O)[C@H](CC(C)C)N(C)C1=O
-5.42 | CC(C)C[C@H]1C(=O)N2CCC[C@H]2C(=O)N(C)[C@@H](CC(C)C)C(=O)N[C@@H](Cc2ccccc2)C(=O)N2CCC[C@H]2C(=O)N(C)[C@@H](C)C(=O)N(Cc2ccccc2)CC(=O)N1C

Extract of 3 entries:

compound | PAMPA (log10 cm/s)
CCCN1CC(=O)N[C@@H](CC(C)C)C(=O)N[C@@H](Cc2ccccc2)CC(=O)N2CCC[C@H]2C(=O)N(C)[C@@H](CC(C)C)C(=O)N[C@@H](Cc2ccccc2)C(=O)N2CCC[C@@H]2C1=O | -5.26
CC(C)C[C@@H]1NC(=O)[C@H]2CCCN2C(=O)[C@H](CC(C)C)N(C)C(=O)[C@H](CC(C)C)N(C)C(=O)[C@@H](C)NC(=O)[C@H](Cc2ccccc2)NC1=O | -5.57
CC(C)C[C@H]1NC(=O)[C@@H](C)NC(=O)[C@H]2CCCN2C(=O)[C@H](Cc2ccccc2)NC(=O)CN(Cc2ccccc2)C(=O)[C@@H]2CCCN2C(=O)[C@@H](CC(C)C)NC1=O | -6.30